Data taken from ChEMBL document CHEMBL5385841, “Recent advances in gout drugs” (Eur J Med Chem, 2023).

Biological target: T1, Solute carrier family 22 member 11 (Homo sapiens, UniProt Q9NSA0)
T1 sequence (Q9NSA0 whole entry): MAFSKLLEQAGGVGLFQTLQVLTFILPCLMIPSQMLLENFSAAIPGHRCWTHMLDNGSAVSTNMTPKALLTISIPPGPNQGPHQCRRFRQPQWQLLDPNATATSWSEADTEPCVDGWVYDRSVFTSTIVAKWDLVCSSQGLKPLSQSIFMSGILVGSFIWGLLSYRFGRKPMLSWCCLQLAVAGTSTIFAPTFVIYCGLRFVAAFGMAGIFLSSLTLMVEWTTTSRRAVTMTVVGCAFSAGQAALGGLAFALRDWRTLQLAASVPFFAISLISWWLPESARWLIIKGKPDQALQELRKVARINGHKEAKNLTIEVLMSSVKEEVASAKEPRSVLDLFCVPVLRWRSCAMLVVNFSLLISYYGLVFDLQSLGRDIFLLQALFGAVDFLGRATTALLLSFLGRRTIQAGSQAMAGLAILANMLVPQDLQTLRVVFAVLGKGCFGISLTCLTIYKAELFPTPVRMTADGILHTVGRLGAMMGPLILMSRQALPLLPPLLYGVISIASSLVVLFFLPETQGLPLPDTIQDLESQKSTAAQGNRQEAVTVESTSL

Q: With `O=C(O)CSc1nnc(Br)n1-c1ccc(C2CC2)c2ccccc12` [LESINURAD] as the molecule, how does the IC50 read?
A: 3.7 µM
